According to ChEMBL document CHEMBL4627399, “Synthesis and Structure-Activity Relationships of 5'-Aryl-14-alkoxypyridomorphinans: Identification of a μ Opioid Receptor Agonist/δ Opioid Receptor Antagonist Ligand with Systemic Antinociceptive Activity and Diminished Opioid Side Effects” (J Med Chem, 2020):

What was measured:
[1] = Half life in CD-1 mouse liver microsomes at 1 uM measured up to 60 mins by reversed phase LC method; assay type: ADME, Microsome; details: 1 h
[2] = Distribution coefficient between 1-octanol and phosphate buffer, logD of the compound at 50 nM incubated for 24 hrs by LC-MS/MS analysis; assay type: physicochemical; details: octanol/water, 0.05 µM
Mus musculus [3] = test: Antinociceptive activity in CD-1 mouse assessed as time above 30% onset antinociceptive effect at 10 nmol, icv measured up to 5 hrs post dose by warm water tail-flick assay; assay type: functional
Mus musculus [4] = test: Antinociceptive activity in CD-1 mouse assessed as maximal peak effect at 1 to 10 mg/kg, iv measured at 45 mins by warm water tail-flick assay relative to control; assay type: functional

Oc1ccc2c3c1O[C@H]1c4ncc(-c5ccncc5)cc4C[C@@]4(OCCCc5ccccc5)[C@@H](C2)N(CC2CC2)CC[C@]314
t1/2 [1]: 11.1 min | logD [2]: 3.53

Oc1ccc2c3c1O[C@H]1c4ncc(-c5ccc(F)c(F)c5)cc4C[C@@]4(OCCCc5ccccc5)[C@@H](C2)N(CC2CC2)CC[C@]314
t1/2 [1]: 8.08 min | logD [2]: 2.92

Oc1ccc2c3c1O[C@H]1c4ncc(-c5ccccc5)cc4C[C@@]4(OCCCC5CCOCC5)[C@@H](C2)N(CC2CC2)CC[C@]314
t1/2 [1]: 6.49 min | logD [2]: 3.37

COc1cccc(-c2cnc3c(c2)C[C@@]2(OCCCc4ccccc4)[C@H]4Cc5ccc(O)c6c5[C@@]2(CCN4CC2CC2)[C@H]3O6)c1
t1/2 [1]: 10.5 min | logD [2]: 2.58

Oc1ccc2c3c1O[C@H]1c4ncc(-c5ccc(F)cc5F)cc4C[C@@]4(OCCCc5ccccc5)[C@@H](C2)N(CC2CC2)CC[C@]314
t1/2 [1]: 10.4 min | logD [2]: 2.84

Cc1cc(-c2cnc3c(c2)C[C@@]2(OCCCc4ccccc4)[C@H]4Cc5ccc(O)c6c5[C@@]2(CCN4CC2CC2)[C@H]3O6)ccn1
t1/2 [1]: 9.6 min | logD [2]: 1.74

CN(C)Cc1ccccc1-c1cnc2c(c1)C[C@@]1(OCCCc3ccccc3)[C@H]3Cc4ccc(O)c5c4[C@@]1(CCN3CC1CC1)[C@H]2O5
t1/2 [1]: 12.7 min | logD [2]: 3.65

Oc1ccc2c3c1O[C@H]1c4ncc(-n5cccc5)cc4C[C@@]4(OCCCc5ccccc5)[C@@H](C2)N(CC2CC2)CC[C@]314
t1/2 [1]: 7.07 min | logD [2]: 3.3

Oc1ccc2c3c1O[C@H]1c4ncc(-c5ccccn5)cc4C[C@@]4(OCCCc5ccccc5)[C@@H](C2)N(CC2CC2)CC[C@]314
t1/2 [1]: 6.25 min | logD [2]: 2.32

COc1ccccc1-c1cnc2c(c1)C[C@@]1(OCCCc3ccccc3)[C@H]3Cc4ccc(O)c5c4[C@@]1(CCN3CC1CC1)[C@H]2O5
t1/2 [1]: 8.65 min | logD [2]: 2.01

Oc1ccc2c3c1O[C@H]1c4ncc(-c5ccncn5)cc4C[C@@]4(OCCCc5ccccc5)[C@@H](C2)N(CC2CC2)CC[C@]314
t1/2 [1]: 10.1 min | logD [2]: 3.3

Oc1ccc2c3c1O[C@H]1c4ncc(-c5ccc(Br)cc5)cc4C[C@@]4(OCCCc5ccccc5)[C@@H](C2)N(CC2CC2)CC[C@]314
t1/2 [1]: 9.64 min | logD [2]: 3.64

Oc1ccc2c3c1O[C@H]1c4ncc(-c5ccccc5)cc4C[C@@]4(OCCCc5ccncc5)[C@@H](C2)N(CC2CC2)CC[C@]314
t1/2 [1]: 8.88 min | logD [2]: 0.818

Cc1ccccc1-c1cnc2c(c1)C[C@@]1(OCCCc3ccccc3)[C@H]3Cc4ccc(O)c5c4[C@@]1(CCN3CC1CC1)[C@H]2O5
t1/2 [1]: 6.48 min | logD [2]: 2.68

CC(=O)Nc1ccc(-c2cnc3c(c2)C[C@@]2(OCCCc4ccccc4)[C@H]4Cc5ccc(O)c6c5[C@@]2(CCN4CC2CC2)[C@H]3O6)cc1
t1/2 [1]: 11 min | logD [2]: 3.15

Oc1ccc2c3c1O[C@H]1c4ncc(-c5cncnc5)cc4C[C@@]4(OCCCc5ccccc5)[C@@H](C2)N(CC2CC2)CC[C@]314
t1/2 [1]: 26.8 min | logD [2]: 2

Cc1nocc1-c1cnc2c(c1)C[C@@]1(OCCCc3ccccc3)[C@H]3Cc4ccc(O)c5c4[C@@]1(CCN3CC1CC1)[C@H]2O5
t1/2 [1]: 18.5 min | logD [2]: 2.11

Oc1cccc(-c2cnc3c(c2)C[C@@]2(OCCCc4ccccc4)[C@H]4Cc5ccc(O)c6c5[C@@]2(CCN4CC2CC2)[C@H]3O6)c1
t1/2 [1]: 7.36 min | logD [2]: 3.73

Cc1ccc(-c2cnc3c(c2)C[C@@]2(OCCCc4ccccc4)[C@H]4Cc5ccc(O)c6c5[C@@]2(CCN4CC2CC2)[C@H]3O6)cc1
t1/2 [1]: 7.86 min | logD [2]: 2.44

CC(=O)Nc1cccc(-c2cnc3c(c2)C[C@@]2(OCCCc4ccccc4)[C@H]4Cc5ccc(O)c6c5[C@@]2(CCN4CC2CC2)[C@H]3O6)c1
t1/2 [1]: 14 min | logD [2]: 2.6

Oc1ccc2c3c1O[C@H]1c4ncc(-c5ccc(Cl)cc5)cc4C[C@@]4(OCc5ccc6ccccc6n5)[C@@H](C2)N(CC2CC2)CC[C@]314
t1/2 [1]: 9.4 min | logD [2]: 2.79

Oc1ccc2c3c1O[C@H]1c4ncc(-c5ccc(Cl)cc5)cc4C[C@@]4(OCCCc5ccccc5)[C@@H](C2)N(CC2CC2)CC[C@]314
t1/2 [1]: 9.72 min | logD [2]: 0.393

COc1ccc(-c2cnc3c(c2)C[C@@]2(OCCCc4ccccc4)[C@H]4Cc5ccc(O)c6c5[C@@]2(CCN4CC2CC2)[C@H]3O6)cc1
Time (Mus musculus [3]): 10 min | t1/2 [1]: 9.03 min | logD [2]: 1.93

Oc1ccc2c3c1O[C@H]1c4ncc(-c5ccccc5C5CC5)cc4C[C@@]4(OCCCc5ccccc5)[C@@H](C2)N(CC2CC2)CC[C@]314
t1/2 [1]: 8.28 min | logD [2]: 3.73

Oc1ccc2c3c1O[C@H]1c4ncc(-c5ccccc5)cc4C[C@@]4(OCCCc5ccccc5)[C@@H](C2)N(CC2CC2)CC[C@]314
t1/2 [1]: 8.96 min | logD [2]: 0.868

Oc1ccc2c3c1O[C@H]1c4ncc(-c5ccc(Cl)cc5)cc4C[C@@]4(OCCOc5ccccc5)[C@@H](C2)N(CC2CC2)CC[C@]314
t1/2 [1]: 160 min | logD [2]: 2.72

CN(C)c1ccccc1-c1cnc2c(c1)C[C@@]1(OCCCc3ccccc3)[C@H]3Cc4ccc(O)c5c4[C@@]1(CCN3CC1CC1)[C@H]2O5
t1/2 [1]: 9.78 min | logD [2]: 1.93

CN(C)c1ccc(-c2cnc3c(c2)C[C@@]2(OCCCc4ccccc4)[C@H]4Cc5ccc(O)c6c5[C@@]2(CCN4CC2CC2)[C@H]3O6)cc1
t1/2 [1]: 7.83 min | logD [2]: 1.87

Cc1cccc(-c2cnc3c(c2)C[C@@]2(OCCCc4ccccc4)[C@H]4Cc5ccc(O)c6c5[C@@]2(CCN4CC2CC2)[C@H]3O6)c1
t1/2 [1]: 7.09 min | logD [2]: 3.39

Cc1cccc(C)c1-c1cnc2c(c1)C[C@@]1(OCCCc3ccccc3)[C@H]3Cc4ccc(O)c5c4[C@@]1(CCN3CC1CC1)[C@H]2O5
t1/2 [1]: 8.27 min | logD [2]: 3.08

CN(C)c1cccc(-c2cnc3c(c2)C[C@@]2(OCCCc4ccccc4)[C@H]4Cc5ccc(O)c6c5[C@@]2(CCN4CC2CC2)[C@H]3O6)c1
t1/2 [1]: 7.1 min | logD [2]: 3.38

COc1cc(-c2cnc3c(c2)C[C@@]2(OCCCc4ccccc4)[C@H]4Cc5ccc(O)c6c5[C@@]2(CCN4CC2CC2)[C@H]3O6)ccn1
t1/2 [1]: 13.4 min | logD [2]: 4.32

Oc1ccc2c3c1O[C@H]1c4ncc(-c5cn[nH]c5)cc4C[C@@]4(OCCCc5ccccc5)[C@@H](C2)N(CC2CC2)CC[C@]314
t1/2 [1]: 7 min | logD [2]: 0.707

Oc1ccc2c3c1O[C@H]1c4ncc(-c5ccccc5)cc4C[C@@]4(OCCCc5ccc(F)cc5)[C@@H](C2)N(CC2CC2)CC[C@]314
t1/2 [1]: 81.1 min | logD [2]: 2.38

Oc1ccc2c3c1O[C@H]1c4ncc(-c5ccc(F)cc5)cc4C[C@@]4(OCCCc5ccccc5)[C@@H](C2)N(CC2CC2)CC[C@]314
t1/2 [1]: 10.4 min | logD [2]: 0.428

Cc1cc(F)ccc1-c1cnc2c(c1)C[C@@]1(OCCCc3ccccc3)[C@H]3Cc4ccc(O)c5c4[C@@]1(CCN3CC1CC1)[C@H]2O5
Time (Mus musculus [3]): 10 min | t1/2 [1]: 8.27 min | logD [2]: 4.52

Oc1ccc2c3c1O[C@H]1c4ncc(-c5ccccc5)cc4C[C@@]4(OCCCCc5ccccc5)[C@@H](C2)N(CC2CC2)CC[C@]314
t1/2 [1]: 16.8 min | logD [2]: 2.33

Cn1cc(-c2cnc3c(c2)C[C@@]2(OCCCc4ccccc4)[C@H]4Cc5ccc(O)c6c5[C@@]2(CCN4CC2CC2)[C@H]3O6)cn1
t1/2 [1]: 21.7 min | logD [2]: 0.943

Cc1nnc(-c2cnc3c(c2)C[C@@]2(OCCCc4ccccc4)[C@H]4Cc5ccc(O)c6c5[C@@]2(CCN4CC2CC2)[C@H]3O6)o1
t1/2 [1]: 6.35 min | Activity (Mus musculus [4]): 80% | logD [2]: 2.85

Oc1ccc2c3c1O[C@H]1c4ncc(-c5ccccc5)cc4C[C@@]4(OCCCC5CCCCC5)[C@@H](C2)N(CC2CC2)CC[C@]314
t1/2 [1]: 27.6 min | logD [2]: 3.27

Oc1ccc2c3c1O[C@H]1c4ncc(-c5cccnc5)cc4C[C@@]4(OCCCc5ccccc5)[C@@H](C2)N(CC2CC2)CC[C@]314
t1/2 [1]: 8.22 min | logD [2]: 3.67

Oc1ccc2c3c1O[C@H]1c4ncc(-c5ccc(Cl)cc5)cc4C[C@@]4(OCCCc5ccncc5)[C@@H](C2)N(CC2CC2)CC[C@]314
t1/2 [1]: 12.2 min | logD [2]: 1.73

Oc1ccc2c3c1O[C@H]1c4ncc(-c5cnccn5)cc4C[C@@]4(OCCCc5ccccc5)[C@@H](C2)N(CC2CC2)CC[C@]314
t1/2 [1]: 8.72 min | logD [2]: 3.55
